# Reference: patent US20230302142A1, “Cytotoxic Agents” (priority 2020, published 2023)
# Test system: HER2++ CAPAN-1 (pancreatic cancer) tumour
# Assay: In vivo efficacy study, Capan-1 tumour
# Details: single dose of 2 mg/kg (day 1), male NOD SCID mice
# Procedure: Capan-1 cells (1×10^7 1:1 with Matrigel) were implanted onto the flank of male NOD SCID mice using a 23-gauge needle. Once tumours reached approximately 150 mm^3 (or slightly larger) and when tumours were solid to the touch, the mice were randomly assigned to the relevant treatment groups. Six mice were treated per cohort, and treatments were only administered on a single dose basis.
substance,measurement,value
Trastuzumab-37,tumour volume with time,reduction in tumour volume with time compared to the control
